Patent publication US20170224836A1 (Novartis, published 2017)

Target: T1, cynoCDH6 FL (cynomolgus, UniProt P55285 54-615 (human entry))
T1 sequence: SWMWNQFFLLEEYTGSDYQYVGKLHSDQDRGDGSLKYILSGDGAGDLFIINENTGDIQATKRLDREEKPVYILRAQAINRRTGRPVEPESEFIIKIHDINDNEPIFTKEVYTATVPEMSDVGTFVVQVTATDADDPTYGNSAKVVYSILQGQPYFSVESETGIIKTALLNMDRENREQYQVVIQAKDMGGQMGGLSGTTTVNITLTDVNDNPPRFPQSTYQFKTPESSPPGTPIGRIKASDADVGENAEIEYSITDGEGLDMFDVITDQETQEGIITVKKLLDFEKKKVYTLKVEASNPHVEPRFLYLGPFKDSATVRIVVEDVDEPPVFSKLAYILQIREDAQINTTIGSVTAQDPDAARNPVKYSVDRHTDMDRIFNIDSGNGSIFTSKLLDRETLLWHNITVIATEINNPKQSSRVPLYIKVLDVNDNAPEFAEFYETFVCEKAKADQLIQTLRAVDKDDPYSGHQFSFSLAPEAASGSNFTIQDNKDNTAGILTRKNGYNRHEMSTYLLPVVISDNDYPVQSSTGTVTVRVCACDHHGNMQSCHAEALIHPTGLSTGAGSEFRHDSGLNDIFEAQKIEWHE
Assay: SPR

B1: NOV0710 (antibody, human IgG1, kappa, V domains shown)
VH: QVQLLESGGGLVQPGGSLRLSCAASGFTFSSYAMSWVRQAPGKGLEWVSVIRSSGSSTYYADSVKGRFTISRDNSKNTLYLQMNSLRAEDTAVYYCARGGGYFDYWGQGTLVTVSS
VL: DIQMTQSPSSLSASVGDRVTITCRASQSISLWLNWYQQKPGKAPKLLIYAASTLQSGVPSRFSGSGSGTDFTLTISSLQPEDFATYYCQQYYTSPYTFGQGTKVEIKR
Binder B1 has a Kd of 3.84 nM.
